{
  "source": "patent US11413261B2",
  "about": "“Pharmaceutical composition for treating cancer comprising lactate metal salt” (METIMEDI PHARMACEUTICALS CO., LTD, priority 2014, dated 2022)",
  "tested_on": "human breast cancer cell line (MCF-7) showing a resistance to Trastuzumab",
  "experiment": "Colony-forming ability, Trastuzumab in combination with calcium lactate (6-well plates)",
  "assay_type": "cell-based",
  "details": "Trastuzumab-resistant MCF-7; 0.23, 0.45, 1.8 μg/ml Trastuzumab alone; vs control",
  "procedure": "Human breast cancer cell line (MCF-7) with the cell number of 1×10^3 cells showing a resistance to an anticancer drug Trastuzumab were seeded into an RPMI1640 medium (including 1% fetal bovine serum+500 ng/μl epithelial growth factor) in each of the 6-well plates. After one day, the medium was replaced with fresh medium and the cells were treated with 2.5 mM calcium lactate or 0.23 μg/ml, 0.45 μg/ml, and 1.8 μg/ml Trastuzumab alone or treated with various concentrations (0.23 μg/ml, 0.45 μg/ml, and 1.8 μg/ml) of Trastuzumab in combination with 2.5 mM calcium lactate. Then, the colony-forming abilities of the cells were compared. In this case, a human breast cancer cell line (MCF-7) untreated with any drug was used as a control group (FIGS. 54a and 54b).",
  "data": [
    {"substance": "Trastuzumab [reference compound]", "values": [
      {"measurement": "colony-forming ability", "value": "little difference"}
    ]}
  ]
}
